In patent publication EP0550007A2, “Eseroline derivatives having anticholinesterase activity, a process for their preparation and pharmaceutical compositions containing them” (priority 1991, dated 1993):

Test: toxicity, LD50 i.p. (Table 1)
Assay type: in vivo
Conditions: 50 % of the animals died within 24 hours from the administration, 1440 min
Description: LD50 is determined for the dose (mg/kg) at which 50 % of the animals died within 24 hours from the administration.
In the following table the results are reported of the toxicity trials relevant to the compounds of the invention.

With “(3-aS-cis)-1,2,3,3a,8,8a- hexahydro 1,3a,8-trimethylpyrrole [2,3-B]-indole 5-ol-2-methyl-1,3 dioxolane carbamate ester [ESE008]” as the substance, how does the LD50 read?
The LD50 was > 30 mg/kg and < 60 mg/kg.

Where “and” joins values, the source holds several entries; their conditions need not be identical. Identical values can stand only once.
